Amino acid sequences for entries named in this document (tags omitted). A change or cut given only in a name is not applied to a line headed by its entry.
UniProt P48025, whole entry: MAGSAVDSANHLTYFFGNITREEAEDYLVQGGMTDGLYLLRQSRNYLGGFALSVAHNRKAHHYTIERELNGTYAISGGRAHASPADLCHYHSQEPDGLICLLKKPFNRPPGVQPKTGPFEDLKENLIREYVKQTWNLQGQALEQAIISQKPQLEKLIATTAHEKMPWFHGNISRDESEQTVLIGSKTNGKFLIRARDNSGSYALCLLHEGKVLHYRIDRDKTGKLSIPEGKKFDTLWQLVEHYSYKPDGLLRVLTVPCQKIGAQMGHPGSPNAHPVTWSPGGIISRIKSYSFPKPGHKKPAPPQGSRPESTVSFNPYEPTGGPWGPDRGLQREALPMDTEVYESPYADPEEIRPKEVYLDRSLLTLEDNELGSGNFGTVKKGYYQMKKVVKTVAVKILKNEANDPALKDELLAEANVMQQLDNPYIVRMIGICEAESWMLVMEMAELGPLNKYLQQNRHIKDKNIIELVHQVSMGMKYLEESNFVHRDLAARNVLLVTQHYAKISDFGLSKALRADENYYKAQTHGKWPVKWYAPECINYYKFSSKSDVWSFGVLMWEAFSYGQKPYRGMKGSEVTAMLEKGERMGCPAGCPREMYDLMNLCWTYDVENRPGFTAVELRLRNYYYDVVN
UniProt P06239: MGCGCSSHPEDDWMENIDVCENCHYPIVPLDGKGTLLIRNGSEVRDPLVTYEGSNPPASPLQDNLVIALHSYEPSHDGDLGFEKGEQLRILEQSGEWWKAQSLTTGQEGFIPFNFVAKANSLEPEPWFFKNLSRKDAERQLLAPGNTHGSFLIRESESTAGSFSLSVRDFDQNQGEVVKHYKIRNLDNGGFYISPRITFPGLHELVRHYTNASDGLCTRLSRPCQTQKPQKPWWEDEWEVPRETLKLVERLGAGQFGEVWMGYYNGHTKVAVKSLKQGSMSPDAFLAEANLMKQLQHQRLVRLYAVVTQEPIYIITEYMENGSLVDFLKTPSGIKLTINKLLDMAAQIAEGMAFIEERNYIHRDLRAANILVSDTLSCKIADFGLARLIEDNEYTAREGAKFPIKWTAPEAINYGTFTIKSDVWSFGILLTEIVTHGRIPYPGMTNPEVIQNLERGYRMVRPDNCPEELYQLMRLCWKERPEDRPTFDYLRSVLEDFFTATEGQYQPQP

According to patent US20030148377A1, “Binding compounds and methods for identifying binding compounds” (priority 2000, published 2003):

Experiments:
Assay type in all cases: biochemical
[1] = biological target: T1, ZAP-70 (Homo sapiens, UniProt P43403); assay: Inhibition of ZAP-70 phosphorylation of peptide 1 (phosphocellulose assay, Lineweaver-Burke plot); settings: at 10 μM inhibitor; peptide 1 (10 μM) as substrate; FIG. 1B
T1 construct: made in house; host or cells: Sf9 cells (baculovirus)
T1 sequence (P43403 1-619): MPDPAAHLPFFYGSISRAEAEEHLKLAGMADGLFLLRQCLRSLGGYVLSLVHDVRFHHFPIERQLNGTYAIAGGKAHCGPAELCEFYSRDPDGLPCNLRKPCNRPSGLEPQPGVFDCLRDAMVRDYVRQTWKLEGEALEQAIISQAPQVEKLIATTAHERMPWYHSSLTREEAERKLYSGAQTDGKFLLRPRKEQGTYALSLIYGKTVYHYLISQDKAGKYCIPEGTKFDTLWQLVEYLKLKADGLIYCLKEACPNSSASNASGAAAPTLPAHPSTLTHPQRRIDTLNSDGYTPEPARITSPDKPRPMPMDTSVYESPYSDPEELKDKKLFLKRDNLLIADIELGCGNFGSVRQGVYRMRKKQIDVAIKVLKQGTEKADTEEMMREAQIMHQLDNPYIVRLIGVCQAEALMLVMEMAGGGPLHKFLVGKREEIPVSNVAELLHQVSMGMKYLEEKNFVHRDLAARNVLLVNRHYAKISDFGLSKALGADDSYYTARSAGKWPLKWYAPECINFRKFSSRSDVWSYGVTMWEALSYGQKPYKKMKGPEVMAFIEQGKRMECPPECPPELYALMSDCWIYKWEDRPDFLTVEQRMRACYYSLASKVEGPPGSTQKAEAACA
Procedure: FIG. 1B: ZAP-70 was also assayed for its ability to phosphorylate peptide 1 (10 μM) in the presence of 0, 10, or 50 μM of peptide 4 (SEQ ID NO: 9) or peptide 5 (SEQ ID NO: 10). Peptide phosphorylation was determined by spotting the reaction mixture on phosphocellulose and washing away the ^32P-ATP with a phosphate buffer. The polylysine tail of peptide 1 facilitates retention on the phosphocellulose (Songyang et al., 1996). The data are presented as the percentage of the activity present in the absence of inhibitory peptides. […]
(§1) Synthetic peptides, tubulin, or GST-band III (construct kindly provided by A. Weiss, University of California, San Francisco) (Zhao and Weiss, 1996) were phosphorylated by ZAP-70-GST-fused protein in the presence or absence of the indicated amount of inhibitory peptides in the kinase buffer (10 mM MnCl2, 50 mM Tris [pH 7.4], 1 mM DTT), 100 μM ATP, and 5 μCi [γ-^32P]ATP for 5 min (or 10 min for GST-band-III) at 30° C. The amount of radioactivity incorporated into substrate peptide was determined using the phosphocellulose assay. […] Phosphorylated tubulin, GST-band III, and myelin basic protein were separated on SDS-PAGE, visualized by autoradiography, and quantitated using a molecular imager (Bio-Rad, Hercules, Calif.).

[2] = biological target: T2, Myc-tagged Syk kinase (Mus musculus, UniProt P48025); assay: Inhibition of GST-band III phosphorylation by Syk; settings: GST-band III (3.4 μM) as substrate; FIG. 1F
T2 construct: made in house; host or cells: COS-7 cells (plasmid pEBM-Syk-myc)
Procedure: (§2) FIG. 1F: Myc-tagged Syk kinase was expressed and purified from COS-7 cells. GST-band III (Km concentration; 0.7 μM for ZAP-70 and 3.4 μM for Syk) was phosphorylated by ZAP-70 (closed circle) or myc-tagged Syk (open circle) in the presence of the indicated amount of peptide 4 for 10 min at 30° C. Phosphorylated tubulin, myelin basic protein, and GST-band III were separated on SDS-PAGE, visualized by autoradiography and quantitated as described in the legend for FIG. 1B. Error bars represent the standard error from 3-4 independent experiments.
as §1, with “assay. Lck-GST-fused protein was purified from Sf9 cells.” for “assay.”

[3] = biological target: T1, ZAP-70; assay: Inhibition of tubulin phosphorylation by ZAP-70; settings: at concentrations below 20 μM; tubulin (5 μM) as substrate; FIG. 1D
Procedure: FIG. 1A: A glutathione-S-transferase chimera of ZAP-70 was purified from Sf9 cells and assayed for its ability to phosphorylate tubulin in the presence of 0, 50, or 100 μM of peptide 1 (SEQ ID NO: 5) or peptide 2 (SEQ ID NO: 6). The assay was carried out in kinase buffer (5 mM MnCl2, 5 mM MgCl2, 25 mM Tris [pH 7.4]), 50 μM ATP, and […] [γ-^32P]ATP for 5 min at 30° C. ^32P-phosphorylated tubulin was separated on SDS-PAGE, visualized by autoradiography (inset), and quantitated using a molecular imager (Bio-Rad).
FIG. 1D: The ZAP-70 Tyr-kinase assay was as described above, using tubulin (5 μM) as substrate. […]
as §1

[4] = biological target: T3, Lck-GST-fused protein (Homo sapiens, UniProt P06239); assay: Inhibition of myelin basic protein phosphorylation by Lck; settings: even at 100 μM; myelin basic protein (5 μM) as substrate; FIG. 1E
T3 construct: made in house; host or cells: Sf9 cells
Procedure: FIG. 1E: A glutathione-S-transferase chimera of Lck was purified from Sf9 cells and assayed for the ability to phosphorylate myelin basic protein (5 μM) in the presence or absence of the same three peptides as used in FIG. 1D. The assay was carried out for 5 min at 30° C.
as §1, with “assay. Lck-GST-fused protein was purified from Sf9 cells. Myelin basic protein was phosphorylated by Lck-GST-fused protein in the presence or absence of inhibitory peptides in the kinase buffer (5 mM MnCl2, 5 mM MgCl2, 25 mM Tris [pH 7.4]), 50 μM ATP, and 5 μCi [γ-^32P]ATP for 5 min at 30° C.” for “assay.”

[5] = biological target: T1, ZAP-70; assay: Inhibition of GST-band III phosphorylation by ZAP-70; settings: GST-band III (0.7 μM) as substrate; dose-dependent; FIG. 1F
Procedure: as §2
as §1, with “assay. Lck-GST-fused protein was purified from Sf9 cells.” for “assay.”

inhibition at 10 µM [1]: 70% | inhibition of Syk activity (in words) [2]: not Syk | inhibition of ZAP-70 [3]: more than 50% | effect on Lck Tyr kinase activity (in words) [4]: only a modest effect | inhibition of ZAP-70 activity (in words) [5]: significantly inhibited
SMILES: CC[C@H](C)[C@H](NC(=O)[C@H](CC(C)C)NC(=O)[C@@H](N)CCCCN)C(=O)N[C@@H](CC(C)C)C(=O)N[C@@H](Cc1ccccc1)C(=O)N[C@@H](CC(C)C)C(=O)N[C@@H](CC(C)C)C(=O)N[C@@H](CC(C)C)C(=O)N[C@@H](CC(C)C)C(=O)O [peptide 4]
